# Ab-14 heavy chain CDR variants: yeast mating affinities

Binding partner: SARS-CoV-2 spike HR2 peptide, sequence PDVDLGDISGINAS.

Ab-14 is the parent antibody, in scFv form: VH, then three GGGGS repeats, then VL. The light chain is unchanged in all variants.
VH: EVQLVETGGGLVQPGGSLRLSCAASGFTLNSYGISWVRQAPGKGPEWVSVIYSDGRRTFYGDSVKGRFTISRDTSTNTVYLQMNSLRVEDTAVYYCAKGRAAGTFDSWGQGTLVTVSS
VL: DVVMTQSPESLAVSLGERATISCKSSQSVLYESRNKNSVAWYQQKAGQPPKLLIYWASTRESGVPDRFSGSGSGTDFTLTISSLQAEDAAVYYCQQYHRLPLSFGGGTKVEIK

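Phage display of a naive human antibody library on the peptide gave the parent. Variants in AAYL49 differ from the parent at up to three CDR positions; double and triple changes were sampled at random. The assay is AlphaSeq: two haploid yeast populations carry antibody and antigen on their surface. Pairs that bind mate more often; barcode pairs of the diploids are counted by sequencing. Each replicate has its own calibration line, from reference interactions of the BCL2 family. There are three technical replicates.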

Each variant is given by its three heavy chain CDRs, as the data file delimits them; those of the parent are GFTLNSYGIS, VIYSDGRRTFYGDSVK, GRAAGTFDS.
Every variant below is changed at F105 of the VH (sequential numbering).
Numbers give log10(Kd / nM), so 0 is 1 nM and 3 is 1 µM. Smaller is tighter.
The mean shown is taken over the replicates in which the pair was detected.
"no signal" marks a missing value. The strain was present, yet no cells mated with the target were sequenced in any replicate, which points to weak or no binding.
As a blank, each scFv also met three strains without target: over library AAYL49, 15% of these pairings were detected, typically at 4.06 and seldom below 2.83.

The variant GFTLNSYGIS | VIYSDGRRTFFGDSVK | GRAAGTPDS gave 3.19 (1 of 3 replicates). The variant GFTLNSYGIS | VIYSCGRRTFYGDSNK | GRAAGTCDS showed no signal (0 of 3 replicates). For GFTANSYGIS | VIYSDGRRTFYDDSVK | GRAAGTKDS, the assay gave 1.96 (3 of 3 replicates). With GFTLNSYGIS | VIYSDGRRTFYGDSVK | GRAPGPTDS the result was 1.85 (3 of 3 replicates). For GFTLNSYGIS | VITSDGRRYFYGDSVK | GRAAGTIDS, the assay gave no signal (0 of 3 replicates). The variant GFTLNSYGIS | VIYSDGRRTFYGDNVK | GRADGTMDS showed 1.54 (3 of 3 replicates). With GFTLNSYGIS | VISSDGYRTFYGDSVK | GRAAGTDDS the result was 2.93 (1 of 3 replicates).

For GFTLNSYGIS | VIYSDGRRRFYGCSVK | GRAAGTNDS, the assay gave no signal (0 of 3 replicates). With GFTLNSYGIS | VIYSDGRRTFYGDSVK | GRAAGTQDS the result was 4.06 (1 of 3 replicates). The variant GFTLNSYGIS | VIYSDGRRTIYGDRVK | GRAAGTADS showed 3.37 (1 of 3 replicates). The variant GFTLNSYGIS | VIYSDGRRTFYGCSVK | GRAAGTQTS showed no signal (0 of 3 replicates). The variant GFTLCSYGIS | VIYSDGRRTFYGDSVK | GMAAGTDDS showed no signal (0 of 3 replicates). The variant GFTLNSYGIS | VINSDGRRTFYGDSVK | PRAAGTHDS showed 5.08 (2 of 3 replicates). For SFTLNSYGYS | VIYSDGRRTFYGDSVK | GRAAGTKDS, the assay gave 2.85 (1 of 3 replicates).

For GFTLPTYGIS | VIYSDGRRTFYGDSVK | GRAAGTLDS, the assay gave no signal (0 of 3 replicates). The variant GFTLNSYGIS | VIYSDGERYFYGDSVK | GRAAGTEDS showed 2.36 (3 of 3 replicates). The variant AFTLNSYGIS | VIYSDGRRTFYGDSVK | GRAEGTMDS showed 1.15 (3 of 3 replicates). The variant GFTLNSYGIS | VIYSDGRRTFYGDSVA | GRAAGTHDS showed 0.74 (3 of 3 replicates). The variant GFTINSYGIS | VIYSDGRHTFYGDSVK | GRAAGTDDS gave 2.44 (2 of 3 replicates). The variant GFTLNSYGIS | VIYSDGRRSFYGLSVK | GRAAGTCDS showed 4.91 (2 of 3 replicates). The variant GFTLNSYGIS | VIYSDGRRTFYGDSVK | GSAAGTVDS showed no signal (0 of 3 replicates).

With GKTLNSYGIS | VIQSDGRRTFYGDSVK | GRAAGTVDS the result was 6.17 (1 of 3 replicates). For GFTLNSYGIS | VIYSDGRRTFDGPSVK | GRAAGTYDS, the assay gave 3.09 (3 of 3 replicates). With GFTLNSYGIS | IIYSDGRRTFYGDSVK | GRAAGTLDL the result was 3.34 (2 of 3 replicates). For GFTLNSYGIS | VVYSDGRRTFYGDSVK | GRAAGTGDS, the assay gave no signal (0 of 3 replicates). The variant GFTLNSYGIS | QIYSDGRRFFYGDSVK | GRAAGTHDS gave no signal (0 of 3 replicates). The variant GYTLNSYGIS | VIYADGRRTFYGDSVK | GRAAGTQDS showed 1.71 (3 of 3 replicates). With GFTLNSYGIS | VIYSDGRRTFYGDSVV | GRNAGTCDS the result was 4.18 (3 of 3 replicates).

For GFTLNSYGIS | VIYSDGRRTFYGDSVK | GRAAGRYKS, the assay gave no signal (0 of 3 replicates). The variant GFTLNSYGIS | VIYSRGRRTFYGDLVK | GRAAGTWDS showed no signal (0 of 3 replicates). For GFTLNSYGIM | VIYSDGRRTFYGDSVI | GRAAGTTDS, the assay gave no signal (0 of 3 replicates). The variant GFTLNSYGIS | VIYSDGCRTFYGDSVK | GRAAKTNDS gave 1.16 (3 of 3 replicates). With GFTLNQYGIS | VIYKDGRRTFYGDSVK | GRAAGTLDS the result was 4.45 (2 of 3 replicates). For GFTLNSYGIS | VIYSDGRRTFYGDNVK | GRAAGQWDS, the assay gave no signal (0 of 3 replicates). With GFTLNSYGIS | VIYSDGRRTFYGDGVK | GRAAGETDS the result was no signal (0 of 3 replicates).

The variant GFTLNSYGIS | VIYSDGRRTFYGDSVK | GRAAGTLDS showed 1.82 (3 of 3 replicates). With GFTLNSYGIS | VIYIDGRRTFYGDSVK | GRAEGTSDS the result was 3.44 (1 of 3 replicates). For GFTLNSYGIS | VIYSDGRRTFNGDSVK | GRAAGTQDC, the assay gave 3.77 (2 of 3 replicates). For GNTLNKYGIS | VIYSDGRRTFYGDSVK | GRAAGTHDS, the assay gave 2.20 (3 of 3 replicates). For GFTLSSYGIS | VIYSDGRRTFYGDSGK | GRAAGTPDS, the assay gave no signal (0 of 3 replicates). The variant QFTLNSYGIS | VIYSDGRRTFYGFSVK | GRAAGTGDS showed 4.40 (1 of 3 replicates). The variant GFTLNSYGFS | VIYHDGRRTFYGDSVK | GRAAGTDDS gave 3.51 (1 of 3 replicates).

With GFTLNSYGIS | VIYSDYRRTFYGDSVK | GRAAGTGDS the result was no signal (0 of 3 replicates). For GFTQNSYGIS | VIYSDGRRTFYGDSVK | GRAAITHDS, the assay gave 5.46 (1 of 3 replicates). The variant GFTLNSYLIS | VIYSDGRRTFYGMSVK | GRAAGTADS gave no signal (0 of 3 replicates). The variant GFTLNSYGCS | VIYSDGRRTFYGDSVK | YRAAGTNDS gave 4.15 (1 of 3 replicates). For GFTLNSYGIS | PIYSDGRRTFYGDSVK | GRAAGTRDL, the assay gave 4.75 (1 of 3 replicates). With GFTLGSAGIS | VIYSDGRRTFYGDSVK | GRAAGTTDS the result was no signal (0 of 3 replicates). The variant GFTLNSYGIS | VIYSDGRRTFYGDSVK | GRAASTHDE gave no signal (0 of 3 replicates).

For GFTLNSYGIS | VIYSDGRRTTYGDSVK | GCAAGTQDS, the assay gave no signal (0 of 3 replicates). The variant GFTLNSYGIL | VIYSDGRRTFYGDSVK | GRAAGTSDS showed 3.64 (1 of 3 replicates). The variant GFTLNSYGIS | VIYSDGRRTFYGDSVK | GRAAGTMDS gave no signal (0 of 3 replicates).

The closing 5 entries, repeated:

CDR-H1,CDR-H2,CDR-H3,"log10 Kd (nM), mean",replicates with signal
GFTLGSAGIS,VIYSDGRRTFYGDSVK,GRAAGTTDS,no signal,0/3
GFTLNSYGIS,VIYSDGRRTFYGDSVK,GRAASTHDE,no signal,0/3
GFTLNSYGIS,VIYSDGRRTTYGDSVK,GCAAGTQDS,no signal,0/3
GFTLNSYGIL,VIYSDGRRTFYGDSVK,GRAAGTSDS,3.64,1/3
GFTLNSYGIS,VIYSDGRRTFYGDSVK,GRAAGTMDS,no signal,0/3

Reference: Engelhart et al. 2022, doi:10.1038/s41597-022-01779-4. File: FLAb, binding data.